In patent US7323490B2:

Molecular target: human PDE6D (Homo sapiens, UniProt O43924)

## CC(C)c1c(C(=O)Nc2ccccc2)c(-c2ccccc2)c(-c2ccc(F)cc2)n1CCOCCOCCOCCOCCOCCOCCOCCN
  Kd: 615 nM

## c1ccc(CSc2nc(-c3ccccc3)c(-c3ccccc3)[nH]2)cc1
  Kd: 900 nM
